This note sets out measurements from ChEMBL document CHEMBL5620393, “New aryl and acylsulfonamides as state-dependent inhibitors of Nav1.3 voltage-gated sodium channel” (Eur J Med Chem, 2023).

Protein sequences, listed by entry. Tags and fused reporters are not part of them.
UniProt Q9WTU3, whole entry: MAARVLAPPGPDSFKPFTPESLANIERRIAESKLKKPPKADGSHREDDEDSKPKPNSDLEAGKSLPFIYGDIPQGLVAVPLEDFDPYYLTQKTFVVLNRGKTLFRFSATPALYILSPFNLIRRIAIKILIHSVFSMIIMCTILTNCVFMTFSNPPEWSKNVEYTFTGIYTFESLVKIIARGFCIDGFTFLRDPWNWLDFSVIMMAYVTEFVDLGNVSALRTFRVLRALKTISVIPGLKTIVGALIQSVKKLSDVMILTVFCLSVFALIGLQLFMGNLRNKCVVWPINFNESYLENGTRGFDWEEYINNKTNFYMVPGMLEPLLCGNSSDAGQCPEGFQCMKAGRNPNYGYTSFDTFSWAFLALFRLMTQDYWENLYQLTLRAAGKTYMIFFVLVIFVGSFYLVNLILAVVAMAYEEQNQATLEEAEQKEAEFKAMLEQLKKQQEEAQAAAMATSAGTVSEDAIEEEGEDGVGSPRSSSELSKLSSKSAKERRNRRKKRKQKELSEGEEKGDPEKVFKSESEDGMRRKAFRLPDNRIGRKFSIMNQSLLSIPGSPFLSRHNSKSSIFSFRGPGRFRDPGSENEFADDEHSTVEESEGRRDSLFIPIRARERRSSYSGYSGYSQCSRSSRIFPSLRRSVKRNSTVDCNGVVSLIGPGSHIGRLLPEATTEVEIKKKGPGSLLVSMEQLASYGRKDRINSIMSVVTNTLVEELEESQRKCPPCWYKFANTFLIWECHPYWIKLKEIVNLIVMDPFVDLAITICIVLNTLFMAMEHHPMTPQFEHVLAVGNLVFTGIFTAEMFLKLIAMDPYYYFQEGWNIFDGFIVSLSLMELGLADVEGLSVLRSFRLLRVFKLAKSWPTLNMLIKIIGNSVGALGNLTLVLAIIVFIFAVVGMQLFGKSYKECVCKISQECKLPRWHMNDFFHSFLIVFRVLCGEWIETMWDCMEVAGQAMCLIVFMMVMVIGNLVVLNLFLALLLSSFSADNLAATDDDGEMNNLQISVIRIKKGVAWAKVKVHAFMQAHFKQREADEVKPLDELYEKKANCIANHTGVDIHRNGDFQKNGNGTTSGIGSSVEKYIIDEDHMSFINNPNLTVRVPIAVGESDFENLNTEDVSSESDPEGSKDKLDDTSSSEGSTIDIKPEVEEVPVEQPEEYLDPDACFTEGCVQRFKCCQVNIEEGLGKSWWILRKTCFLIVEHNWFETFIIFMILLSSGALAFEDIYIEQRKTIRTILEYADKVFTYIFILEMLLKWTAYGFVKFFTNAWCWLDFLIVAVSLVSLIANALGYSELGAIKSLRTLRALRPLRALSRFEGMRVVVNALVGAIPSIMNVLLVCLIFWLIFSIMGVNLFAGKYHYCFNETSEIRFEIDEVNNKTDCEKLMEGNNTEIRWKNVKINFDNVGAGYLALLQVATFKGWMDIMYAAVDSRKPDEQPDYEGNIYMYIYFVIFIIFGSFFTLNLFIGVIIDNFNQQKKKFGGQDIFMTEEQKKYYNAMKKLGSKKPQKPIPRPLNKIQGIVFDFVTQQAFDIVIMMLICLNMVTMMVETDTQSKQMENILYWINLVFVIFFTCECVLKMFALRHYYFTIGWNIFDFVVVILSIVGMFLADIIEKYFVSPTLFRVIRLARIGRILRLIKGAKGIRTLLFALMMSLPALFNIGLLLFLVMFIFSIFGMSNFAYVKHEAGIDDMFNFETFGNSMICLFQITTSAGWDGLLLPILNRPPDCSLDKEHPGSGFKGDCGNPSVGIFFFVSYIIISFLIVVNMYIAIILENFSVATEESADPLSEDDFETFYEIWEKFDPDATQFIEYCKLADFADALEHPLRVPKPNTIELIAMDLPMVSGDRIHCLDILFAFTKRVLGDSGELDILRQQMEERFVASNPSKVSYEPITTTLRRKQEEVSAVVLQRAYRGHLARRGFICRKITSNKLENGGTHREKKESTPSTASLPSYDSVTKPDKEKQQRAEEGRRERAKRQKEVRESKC
UniProt Q9Y5Y9, whole entry, looked up: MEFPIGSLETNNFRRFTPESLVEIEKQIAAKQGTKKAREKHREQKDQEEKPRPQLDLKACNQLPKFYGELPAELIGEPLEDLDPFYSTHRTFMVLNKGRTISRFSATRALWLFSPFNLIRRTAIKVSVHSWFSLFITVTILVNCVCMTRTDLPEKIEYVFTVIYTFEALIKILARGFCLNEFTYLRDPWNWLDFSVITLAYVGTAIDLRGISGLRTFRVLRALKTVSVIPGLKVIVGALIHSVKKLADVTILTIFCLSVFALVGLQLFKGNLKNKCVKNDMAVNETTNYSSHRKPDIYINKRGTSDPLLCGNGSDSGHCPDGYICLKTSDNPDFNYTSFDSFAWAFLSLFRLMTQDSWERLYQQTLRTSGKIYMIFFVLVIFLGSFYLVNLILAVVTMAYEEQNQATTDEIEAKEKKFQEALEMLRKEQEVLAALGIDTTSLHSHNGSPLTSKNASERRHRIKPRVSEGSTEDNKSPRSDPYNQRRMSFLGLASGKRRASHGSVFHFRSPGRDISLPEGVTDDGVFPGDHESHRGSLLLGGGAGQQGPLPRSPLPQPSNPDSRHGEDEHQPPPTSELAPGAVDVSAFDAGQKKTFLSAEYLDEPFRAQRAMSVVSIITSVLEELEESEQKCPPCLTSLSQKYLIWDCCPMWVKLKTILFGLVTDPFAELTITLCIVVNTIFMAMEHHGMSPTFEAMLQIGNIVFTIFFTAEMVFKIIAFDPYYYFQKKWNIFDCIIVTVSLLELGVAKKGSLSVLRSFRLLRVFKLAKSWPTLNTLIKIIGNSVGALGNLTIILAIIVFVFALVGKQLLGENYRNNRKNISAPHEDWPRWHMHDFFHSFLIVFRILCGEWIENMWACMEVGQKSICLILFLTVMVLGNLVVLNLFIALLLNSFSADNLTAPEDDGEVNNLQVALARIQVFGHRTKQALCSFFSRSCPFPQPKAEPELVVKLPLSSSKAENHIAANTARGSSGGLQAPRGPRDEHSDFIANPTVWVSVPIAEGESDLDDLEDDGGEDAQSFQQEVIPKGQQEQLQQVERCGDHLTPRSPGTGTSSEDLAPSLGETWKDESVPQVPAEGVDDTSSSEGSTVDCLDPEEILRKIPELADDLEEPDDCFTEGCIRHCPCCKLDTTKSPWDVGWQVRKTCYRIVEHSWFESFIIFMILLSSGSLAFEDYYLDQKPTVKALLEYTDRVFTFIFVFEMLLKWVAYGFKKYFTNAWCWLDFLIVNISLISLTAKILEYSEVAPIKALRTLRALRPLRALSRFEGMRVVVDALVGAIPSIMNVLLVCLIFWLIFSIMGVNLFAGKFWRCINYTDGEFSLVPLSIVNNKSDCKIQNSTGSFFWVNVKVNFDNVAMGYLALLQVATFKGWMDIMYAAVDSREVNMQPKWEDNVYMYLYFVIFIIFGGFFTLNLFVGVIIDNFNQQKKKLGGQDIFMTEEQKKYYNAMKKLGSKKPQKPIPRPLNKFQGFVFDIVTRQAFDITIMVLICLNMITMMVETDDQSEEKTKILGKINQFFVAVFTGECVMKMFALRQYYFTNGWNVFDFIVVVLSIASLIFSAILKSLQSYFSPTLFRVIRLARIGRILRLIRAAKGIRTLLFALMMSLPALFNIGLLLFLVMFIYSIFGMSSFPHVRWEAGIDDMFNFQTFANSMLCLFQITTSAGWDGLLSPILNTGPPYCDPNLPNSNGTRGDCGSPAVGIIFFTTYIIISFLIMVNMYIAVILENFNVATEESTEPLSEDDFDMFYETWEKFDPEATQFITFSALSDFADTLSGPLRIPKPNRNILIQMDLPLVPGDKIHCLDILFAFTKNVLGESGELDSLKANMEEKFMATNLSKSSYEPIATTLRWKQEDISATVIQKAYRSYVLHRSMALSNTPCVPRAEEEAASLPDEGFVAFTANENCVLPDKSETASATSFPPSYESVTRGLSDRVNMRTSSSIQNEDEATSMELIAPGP
UniProt P08104, whole entry: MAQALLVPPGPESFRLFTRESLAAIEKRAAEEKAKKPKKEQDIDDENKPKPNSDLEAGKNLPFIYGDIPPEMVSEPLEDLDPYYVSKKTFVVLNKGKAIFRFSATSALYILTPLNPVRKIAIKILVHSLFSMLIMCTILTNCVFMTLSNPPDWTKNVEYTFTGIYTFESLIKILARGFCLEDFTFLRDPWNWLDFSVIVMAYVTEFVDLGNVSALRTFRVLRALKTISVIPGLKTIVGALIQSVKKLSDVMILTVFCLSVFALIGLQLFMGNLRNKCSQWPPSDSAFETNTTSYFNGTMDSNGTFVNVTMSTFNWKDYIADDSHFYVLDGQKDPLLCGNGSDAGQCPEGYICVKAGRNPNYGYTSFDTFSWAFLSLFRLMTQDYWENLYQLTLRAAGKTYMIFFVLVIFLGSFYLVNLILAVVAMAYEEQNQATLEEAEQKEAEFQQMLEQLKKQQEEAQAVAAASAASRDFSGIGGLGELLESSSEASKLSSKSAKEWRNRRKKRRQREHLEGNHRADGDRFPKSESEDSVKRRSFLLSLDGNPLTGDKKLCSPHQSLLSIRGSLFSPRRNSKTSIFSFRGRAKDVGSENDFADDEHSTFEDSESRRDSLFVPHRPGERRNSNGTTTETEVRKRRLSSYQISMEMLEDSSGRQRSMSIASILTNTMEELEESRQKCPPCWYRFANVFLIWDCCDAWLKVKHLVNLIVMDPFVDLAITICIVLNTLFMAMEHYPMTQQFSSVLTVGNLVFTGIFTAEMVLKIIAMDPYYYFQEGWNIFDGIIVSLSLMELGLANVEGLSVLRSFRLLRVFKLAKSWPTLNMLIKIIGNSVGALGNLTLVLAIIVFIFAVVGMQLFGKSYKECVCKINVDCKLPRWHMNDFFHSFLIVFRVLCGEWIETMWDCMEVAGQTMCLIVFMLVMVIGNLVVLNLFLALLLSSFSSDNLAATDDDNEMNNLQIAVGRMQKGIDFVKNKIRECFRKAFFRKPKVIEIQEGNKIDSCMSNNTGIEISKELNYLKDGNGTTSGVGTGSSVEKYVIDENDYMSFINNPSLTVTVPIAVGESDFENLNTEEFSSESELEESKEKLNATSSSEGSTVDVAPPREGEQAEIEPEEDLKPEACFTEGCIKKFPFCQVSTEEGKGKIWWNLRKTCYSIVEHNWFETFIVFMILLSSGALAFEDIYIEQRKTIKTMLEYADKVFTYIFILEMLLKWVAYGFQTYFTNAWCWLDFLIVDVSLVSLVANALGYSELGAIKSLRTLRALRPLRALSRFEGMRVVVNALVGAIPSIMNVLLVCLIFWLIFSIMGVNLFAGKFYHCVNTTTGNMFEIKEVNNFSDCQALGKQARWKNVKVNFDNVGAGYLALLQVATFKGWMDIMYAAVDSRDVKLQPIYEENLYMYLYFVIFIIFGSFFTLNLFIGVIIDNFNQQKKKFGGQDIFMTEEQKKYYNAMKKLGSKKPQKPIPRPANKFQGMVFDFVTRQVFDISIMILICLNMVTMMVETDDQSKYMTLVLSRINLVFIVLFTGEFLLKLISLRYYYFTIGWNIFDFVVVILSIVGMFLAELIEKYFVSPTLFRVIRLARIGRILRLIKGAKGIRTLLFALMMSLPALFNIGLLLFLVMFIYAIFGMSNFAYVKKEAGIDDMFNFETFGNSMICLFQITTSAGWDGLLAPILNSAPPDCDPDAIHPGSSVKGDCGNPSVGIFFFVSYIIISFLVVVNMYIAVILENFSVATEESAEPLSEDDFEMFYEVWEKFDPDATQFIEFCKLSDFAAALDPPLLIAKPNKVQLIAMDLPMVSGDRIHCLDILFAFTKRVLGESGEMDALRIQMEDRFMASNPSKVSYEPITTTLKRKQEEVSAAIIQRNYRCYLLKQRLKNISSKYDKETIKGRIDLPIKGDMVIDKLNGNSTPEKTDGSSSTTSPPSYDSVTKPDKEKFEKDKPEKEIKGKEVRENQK

SMILES strings stand for the structures. Active and inactive are the calls of the source. The calls are words filed in the database; no cut-off is given here.

The term inhibition denotes the share of the control response that was lost under treatment.

Common to all, as to type: cell-based
Holding throughout (details): Oocyte

Experiment [1] has as its target Sodium channel protein type 8 subunit alpha (Mus musculus) (UniProt Q9WTU3). Nature of the experiment: Inhibition of mouse Nav1.6 expressed in Xenopus laevis oocytes at closed state at 1 uM by two electrode voltage-clamp assay. In short, it runs like this:
(§1)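 TEVC on Nav channels expressed in Xenopus laevis oocytes. Each oocyte was injected with 50 nL cRNA at 1 ng/nL and recorded 1–4 days later at 18–22 °C. Bath (mM): NaCl 96, KCl 2, CaCl2 1.8, MgCl2 2, HEPES 5, pH 7.4. Electrodes held 3 M KCl at 0.8–1.5 MΩ. Compound tested at 1 μM. Mean ± SD, n ≥ 5.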
On the technique in general: In two-electrode clamp one electrode senses voltage and the other passes current.

The target in experiment [2] is Sodium channel protein type 1 subunit alpha (Homo sapiens) (UniProt P35498). Nature of the experiment: Inhibition of human Nav1.1 expressed in Xenopus laevis oocytes at closed state at 1 uM by two electrode voltage-clamp assay. The gist of the method: as §1
The target in experiment [3] is Sodium channel protein type 9 subunit alpha (Homo sapiens, UniProt Q15858). Nature of the experiment: Inhibition of human Nav1.7 expressed in Xenopus laevis oocytes at closed state at 1 uM by two electrode voltage-clamp assay. The gist of the method:
as §1

Experiment [4] addresses Sodium channel protein type 4 subunit alpha (Rattus norvegicus) (UniProt P15390). As to the kind of experiment: Inhibition of rat Nav1.4 expressed in Xenopus laevis oocytes at closed state at 1 uM by two electrode voltage-clamp assay. In short, it runs like this: as §1
The target of experiment [5] is Sodium channel protein type 2 subunit alpha (Rattus norvegicus) (UniProt P04775). As to the kind of experiment: Inhibition of rat Nav1.2 expressed in Xenopus laevis oocytes at closed state at 1 uM by two electrode voltage-clamp assay. In short, it runs like this: as §1
In experiment [6] the target is Sodium channel protein type 10 subunit alpha (Homo sapiens) (UniProt Q9Y5Y9). Nature of the experiment: Inhibition of human Nav1.8 expressed in Xenopus laevis oocytes at closed state at 1 uM by two electrode voltage-clamp assay. In short, it runs like this:
as §1

Experiment [7] deals with Sodium channel protein type 3 subunit alpha (Rattus norvegicus) (UniProt P08104). Nature of the experiment: Inhibition of rat Nav1.3 expressed in Xenopus laevis oocytes at 1 uM under inactivated state by two electrode voltage-clamp assay relative to control. In short, it runs like this: as §1

Regarding `CS(=O)(=O)NC(=O)c1ccc(NC(=O)c2cc(Br)c(Br)n2Cc2ccccc2)cc1`, the inhibition entry in experiment [1], in experiment [2], in experiment [3], in experiment [4], in experiment [5] and in experiment [6] was “inactive” throughout.

As for `O=C(Nc1cccc(S(=O)(=O)Nc2nccs2)c1)c1cc(Br)c(Br)n1Cc1ccccc1`, the inhibition result in experiment [1], in experiment [2], in experiment [3], in experiment [4], in experiment [5] and in experiment [6] was “inactive” each time.

`O=C(Nc1cccc(S(=O)(=O)Nc2nccs2)c1)c1cccn1Cc1ccccc1`: the inhibition entry in experiment [1], in experiment [2], in experiment [3], in experiment [4], in experiment [5] and in experiment [6] was “inactive” each time.

As for `Cc1nc(-c2c(Cl)cccc2Cl)sc1C(=O)N[C@@H](Cc1ccccc1)C(=O)O`, the inhibition entry in experiment [1], in experiment [2], in experiment [3], in experiment [4], in experiment [5] and in experiment [6] was “inactive” throughout.

Consider `CS(=O)(=O)NC(=O)c1ccc(NC(=O)c2cc(Br)c(Br)n2-c2ccccc2)cc1`, for which the inhibition result in experiment [1], in experiment [2], in experiment [3], in experiment [4], in experiment [5] and in experiment [6] was “inactive” throughout.

`CN(C)S(=O)(=O)NC(=O)c1ccc(NC(=O)c2cccn2Cc2ccc(Cl)cc2)cc1`: the inhibition result in experiment [1], in experiment [2], in experiment [3], in experiment [4], in experiment [5] and in experiment [6] was “inactive” each time.

`CS(=O)(=O)NC(=O)c1ccc(OC[C@@H]2C[C@H]2c2ccccc2)cc1`: the inhibition entry in experiment [1], in experiment [2], in experiment [3], in experiment [4], in experiment [5] and in experiment [6] was “inactive” in each case.

Consider `C[C@H](Oc1ccc(Cl)cc1)C(=O)Nc1ccc(C(=O)NS(C)(=O)=O)cc1`, for which the inhibition result in experiment [1], in experiment [2], in experiment [3], in experiment [4], in experiment [5] and in experiment [6] was “inactive” throughout.

For the molecule `O=C(Nc1ccc(S(=O)(=O)Nc2nccs2)cc1)c1cccn1-c1ccccc1`, the inhibition result in experiment [1], in experiment [2], in experiment [3], in experiment [4], in experiment [5] and in experiment [6] was “inactive” throughout.

In turn, `O=C(Nc1ccc(S(=O)(=O)Nc2nccs2)cc1)c1cccn1Cc1ccccc1` showed an inhibition in experiment [7] of 21%. The inhibition entry in experiment [1], in experiment [2], in experiment [3], in experiment [4], in experiment [5] and in experiment [6] was “inactive” each time.

Consider `CC(=O)NS(=O)(=O)c1ccc(NC(=O)c2cccn2Cc2ccc(Cl)cc2)cc1`, for which the inhibition result in experiment [1], in experiment [2], in experiment [3], in experiment [4], in experiment [5] and in experiment [6] was “inactive” each time.

For `O=C(Nc1ccc(S(=O)(=O)Nc2nccs2)cc1)c1cc(Br)c(Br)n1Cc1ccccc1`, in experiment [7], the inhibition is 21%. Further, the inhibition result in experiment [1], in experiment [2], in experiment [3], in experiment [4], in experiment [5] and in experiment [6] was “inactive” in each case.

Regarding `O=C(Nc1cccc(S(=O)(=O)Nc2nccs2)c1)[C@@H]1C[C@H]1c1ccccc1`, the inhibition result in experiment [1], in experiment [2], in experiment [3], in experiment [4], in experiment [5] and in experiment [6] was “inactive” throughout.

For `C[C@@H](Oc1ccc(Cl)cc1)C(=O)Nc1ccc(C(=O)NS(=O)(=O)N(C)C)cc1`, the inhibition entry in experiment [1], in experiment [2], in experiment [3], in experiment [4], in experiment [5] and in experiment [6] was “inactive” each time.

On to `CC(=O)NS(=O)(=O)c1ccc(NC(=O)[C@@H]2C[C@H]2c2ccccc2)cc1`, for which the inhibition entry in experiment [1], in experiment [2], in experiment [3], in experiment [4], in experiment [5] and in experiment [6] was “inactive” throughout.

On to `O=C(Nc1ccc(S(=O)(=O)Nc2nccs2)cc1)c1cc(Br)c(Br)n1-c1ccccc1`, for which the inhibition in experiment [7] amounted to 21%. The inhibition entry in experiment [1], in experiment [2], in experiment [3], in experiment [4], in experiment [5] and in experiment [6] was “inactive” in each case.

Turning to `O=C(Nc1cccc(S(=O)(=O)Nc2nccs2)c1)c1cccn1Cc1ccc(Cl)cc1`, the inhibition entry in experiment [1], in experiment [2], in experiment [3], in experiment [4], in experiment [5] and in experiment [6] was “inactive” throughout.

Turning to `C[C@@H](Oc1ccc(Cl)cc1)C(=O)Nc1ccc(C(=O)NS(C)(=O)=O)cc1`, the inhibition result in experiment [1], in experiment [2], in experiment [3], in experiment [4], in experiment [5] and in experiment [6] was “inactive” in each case.

Take `CC(=O)NS(=O)(=O)c1ccc(NC(=O)c2cc(Br)c(Br)n2Cc2ccccc2)cc1`: the inhibition result in experiment [1], in experiment [2], in experiment [3], in experiment [4], in experiment [5] and in experiment [6] was “inactive” throughout.

For `CN(C)S(=O)(=O)NC(=O)c1ccc(NC(=O)[C@@H]2C[C@H]2c2ccccc2)cc1`, the inhibition result in experiment [1], in experiment [2], in experiment [3], in experiment [4], in experiment [5] and in experiment [6] was “inactive” each time.

In turn, `O=C(Nc1ccc(S(=O)(=O)Nc2nccs2)cc1)c1cccn1Cc1ccc(Cl)cc1` yielded an inhibition in experiment [7] of 21%. The inhibition result in experiment [1], in experiment [2], in experiment [3], in experiment [4], in experiment [5] and in experiment [6] was “inactive” throughout.

Take `CN(C)S(=O)(=O)NC(=O)c1ccc(NC(=O)c2cc3ccccc3o2)cc1`: the inhibition entry in experiment [1], in experiment [2], in experiment [3], in experiment [4], in experiment [5] and in experiment [6] was “inactive” each time.
